# Measured values: PubChem BioAssay AID1469 (National Center for Advancing Translational Sciences (NCATS), 2008)
# The chains behind the UniProt entries cited, without tags or fusion partners. Where a name states a change or a piece, a line headed by the entry shows the natural chain unless it says otherwise.
# UniProt P10828: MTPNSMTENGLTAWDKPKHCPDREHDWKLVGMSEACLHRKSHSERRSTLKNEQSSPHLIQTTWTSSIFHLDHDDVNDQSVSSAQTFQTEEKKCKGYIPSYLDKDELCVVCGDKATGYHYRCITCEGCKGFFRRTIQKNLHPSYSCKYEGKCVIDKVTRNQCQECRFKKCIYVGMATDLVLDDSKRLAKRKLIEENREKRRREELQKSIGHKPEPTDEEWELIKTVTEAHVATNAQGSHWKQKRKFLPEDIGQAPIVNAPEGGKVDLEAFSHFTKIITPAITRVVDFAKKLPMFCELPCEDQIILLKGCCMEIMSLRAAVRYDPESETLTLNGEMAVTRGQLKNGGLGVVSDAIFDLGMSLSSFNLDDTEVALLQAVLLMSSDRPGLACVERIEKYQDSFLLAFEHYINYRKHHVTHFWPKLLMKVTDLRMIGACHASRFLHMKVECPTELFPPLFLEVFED
# This is a selection; strong and weak results do not stand in their true shares. Active and inactive are the calls of the source. The call rests on the fitted dose curve; in most records, active means well fitted inhibition curve with a large enough effect; inconclusive means small, poorly fitted or top-dose-only effect, or effect the other way; inactive means flat fitted curve, though single readings scatter.
# Target: Thyroid hormone receptor beta (Homo sapiens) (UniProt P10828)
# Experiment: qHTS for Inhibitors of the Interaction of Thyroid Hormone Receptor and Steroid Receptor Coregulator 2;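 further: plate controls were bound peptide for no effect and peptide without receptor for full effect; nearly all actives have a fitted effect of over 50% in size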
# Settings: TRbeta-SRC2 peptide binding, fluorescence polarization, receptor liganded with 1 µM T3
# Excerpt: NIH Molecular Libraries Probe Production Network [MLPCN]
# NIH Chemical Genomics Center [NCGC]
# Assay Provider: R. Kip Guy, St. Jude Children's Research Hospital
# Thyroid receptor (TR) regulates many homeostatic processes including basal metabolism, cardiovascular function, body weight, and lipid trafficking. TR modulators are potential therapeutics for obesity and hyperlipidemias but current thyroid analogs have undesirable side effects, particularly cardiac stimulation. To identify inhibitors that specifically prevent the interaction of TR with the steroid receptor coregulator 2 (SRC2), a fluorescence polarization assay was screened. This assay detects interaction of the ligand-binding domain of human TRb with a Texas Red labeled SRC2 peptide, corresponding to a 20 amino acid region of the nuclear receptor interaction domain (Arnold et al., 2006). Small molecule inhibitors that block the interaction of TR and SRC2 are detected by a decrease in fluorescence polarization.
# Arnold, L. A.; Estebanez-Perpina, E.; Togashi, M.; Shelat, A.; Ocasio, C. A.; McReynolds, A. C.; Nguyen, P.; Baxter, J. D.; Fletterick, R. J.; Webb, P.; Guy, R. K. A high-throughput screening method to identify small molecule inhibitors of thyroid hormone receptor coactivator binding. Sci STKE 2006, p 13.
# NCGC Assay Protocol Summary:
# For screening, 5 uL/well 0.6 uM TRb and 20 nM SRC2 Texas Red in protein buffer (20mM Tris hydrochloride, 100mM NaCl, 10% glycerol, 1mM EDTA, 0.01% NP-40, 1mM DTT, 1uM T3 and 5% DMSO) was dispensed into black solid 1536-well plates (Grenier) using a solenoid-based dispenser. Following transfer of 23 nL compound or DMSO vehicle by a pin tool, the plates were centrifuged 15 s at 1000 RPM and incubated 5 hr at ambient temperature. […] Data were normalized to unbound (all components except TRb) and bound SRC2 Texas Red controls. In this assay, we provide % activity data for each concentration as well as potencies for the active compounds.
# Keywords: NIH Roadmap, MLPCN, MLI, MLSMR, qHTS, NCGC, qHTS, thyroid hormone receptor, steroid receptor coactivator, fluorescence polarization
# [1] = at 106 µM (top of the series) unless noted
structure (smiles),measurement,setting,value
CCC(=O)N1C2C3N(C(=O)CC)C1C1N(C(=O)CC)C(C(N1C(=O)CC)N3C(=O)CC)N2C(=O)CC,"activity change, negative = inhibition",[1],inactive: -2.56%
COC(=O)c1cc2c(s1)N=C(c1ccccc1)N(C)P2(=O)N1CCOCC1 (configuration not stated),"activity change, negative = inhibition",[1],inactive: -0.33%
Cc1ccc(OP(=O)(Nc2ccccn2)Oc2ccc(C)cc2)cc1,"activity change, negative = inhibition",[1],inactive: 1.59%
CC(=O)NC(SC(=S)N(CC(C)C)CC(C)C)C(Cl)(Cl)Cl (configuration not stated),"activity change, negative = inhibition",[1],inactive: -1.96%
Cc1ccccc1OP(=O)(Nc1ccccn1)Oc1ccccc1C,"activity change, negative = inhibition",[1],inactive: 4.16%
O=c1c2cc([N+](=O)[O-])ccc2[nH]c2c([N+](=O)[O-])cc([N+](=O)[O-])cc12,"activity change, negative = inhibition",[1],inactive: -4.01%
CN(C)C(=O)Oc1noc2ccccc12,"activity change, negative = inhibition",[1],inactive: 5.21%
c1ccc(-c2nn[nH]n2)c(-c2nn[nH]n2)c1,"activity change, negative = inhibition",[1],inactive: -3.33%
CCOC(=O)NC(Sc1ccccc1)C(Cl)(Cl)Cl (configuration not stated),"activity change, negative = inhibition",[1],inactive: 2.04%
Cc1ccc(NP(=O)(Oc2cccc(C)c2)Oc2cccc(C)c2)nc1,"activity change, negative = inhibition",[1],inactive: 2.12%
CCNC(=S)/N=C(\N)N[N+](=O)[O-],"activity change, negative = inhibition",[1],inactive: 1.56%
O=C(NC1CCS(=O)(=O)C1)NP(=S)(Oc1ccccc1)Oc1ccccc1 (configuration not stated),"activity change, negative = inhibition",[1],inactive: -2.44%
C[C@H]1OP(=O)(Oc2ccccc2)C[C@@H]2O[C@@H]21 (some centres not stated),"activity change, negative = inhibition",[1],inactive: 2.73%
C[C@@H]1C=CCP(=O)(Oc2ccccc2)O1 (some centres not stated),"activity change, negative = inhibition",[1],inactive: 8.61%
CC(=O)Nc1ccc([As](=O)(O)O)c(O)c1,"activity change, negative = inhibition",[1],inactive: 0.15%
CC(=O)Nc1ccc(Oc2c([N+](=O)[O-])cc([N+](=O)[O-])cc2[N+](=O)[O-])cc1,"activity change, negative = inhibition",[1],inactive: -11.6%
O=P1(Nc2nc3ccc(Cl)cc3s2)COc2ccccc2O1 (configuration not stated),"activity change, negative = inhibition",[1],inactive: -19.4%
CC(C)(C)C(=O)NC(Sc1ccccc1)C(Cl)(Cl)Cl (configuration not stated),"activity change, negative = inhibition",[1],inactive: -4.47%
CC(C)C(=O)NC(Sc1ccccc1)C(Cl)(Cl)Cl (configuration not stated),"activity change, negative = inhibition",[1],inactive: -6.86%
O=P(Nc1nccs1)(c1ccccc1)c1ccccc1,"activity change, negative = inhibition",[1],inactive: 1.5%
c1nnnn1CCn1cnnn1,"activity change, negative = inhibition",[1],inactive: -9.27%
O=[As](O)(c1ccccc1)c1ccc(O)cc1,"activity change, negative = inhibition",[1],inactive: -0.203%
O=[N+]([O-])c1ncn(CCn2cnc([N+](=O)[O-])n2)n1,"activity change, negative = inhibition",[1],inactive: -9.12%
CC(=O)NC(SC(=S)N(C)C)C(Cl)(Cl)Cl (configuration not stated),"activity change, negative = inhibition",[1],inactive: -2.83%
C(Cc1nn[nH]n1)Cc1nn[nH]n1,"activity change, negative = inhibition",[1],inactive: -3.58%
Nc1ccc([As](=O)(O)c2ccc([N+](=O)[O-])cc2)cc1,"activity change, negative = inhibition",[1],inactive: -2.29%
O=P(Nc1ccccn1)(c1ccc(Br)cc1)c1ccc(Br)cc1,"activity change, negative = inhibition",[1],inactive: 5.19%
Cc1cc([N+](=O)[O-])cc([N+](=O)[O-])c1O,"activity change, negative = inhibition",at 106 µM (top of the series),inactive: 2.32%
same,"activity change, negative = inhibition",at 201 µM (top of the series),inactive: -5.33%
CN(C(=O)Cc1ccccc1)[C@H]1CC[C@@]2(CCCO2)C[C@@H]1N1CCCC1,"activity change, negative = inhibition",[1],inactive: 3.98%
O=P(Nc1nc2ccccc2s1)(c1ccccc1)c1ccccc1,"activity change, negative = inhibition",[1],inactive: -4.44%
C[C@H]1OP(=O)(Oc2ccccc2)[C@H](O)[C@H](O)[C@H]1N=[N+]=[N-] (some centres not stated),"activity change, negative = inhibition",[1],inactive: 7.33%
